## Yeast mating assay 1: variants of the scFv Ab-14

Binding partner: SARS-CoV-2 spike HR2 peptide, sequence PDVDLGDISGINAS.

Each scFv is VH, the linker GGGGSGGGGSGGGGS, VL, as in the parent Ab-14, and differs from it in the CDRs of the light chain only.
VH: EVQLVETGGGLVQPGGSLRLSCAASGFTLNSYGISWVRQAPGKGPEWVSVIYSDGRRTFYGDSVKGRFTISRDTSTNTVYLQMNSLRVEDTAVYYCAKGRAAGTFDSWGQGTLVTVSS
VL: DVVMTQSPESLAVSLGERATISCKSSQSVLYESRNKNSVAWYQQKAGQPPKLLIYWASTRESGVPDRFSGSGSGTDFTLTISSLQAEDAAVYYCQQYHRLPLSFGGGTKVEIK

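Library AAYL50 holds single substitutions and randomly drawn double and triple substitutions in the CDRs. The assay is AlphaSeq: two haploid yeast populations carry antibody and antigen on their surface. Binding brings cells together so that they mate, and sequencing counts the barcode pairs among the diploids. A regression on co-assayed BCL2-family reference pairs converts the normalised counts of each replicate to an apparent Kd. There are three technical replicates.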

Positions count from residue 1 of the parent VL; A40R puts R in place of A.
Every variant below is changed at H98 of the VL (sequential numbering).
The Kd shown is the geometric mean over detected replicates; a lower Kd is a better binder.
Where no diploid with the target was found in any replicate, the entry reads "nd": below detection, most likely a poor binder, though not proof of it.
Background: pairings of library AAYL50 with three empty control strains gave a value in 18% of cases (median 15 µM, 5th percentile 970 nM). Values in that range, when seen in few replicates, are hard to tell from nonspecific mating.

changes	Kd (apparent)	replicates with signal
A40R/H98W	nd	0 of 3
R34C/K36Y/H98M	65 nM	3 of 3
S26K/S28R/H98N	250 nM	3 of 3
Q27Y/A57W/H98D	nd	0 of 3
H98V	19 nM	3 of 3
V29F/Y97R/H98L	24 nM	3 of 3
Y31G/V39K/H98F	nd	0 of 3
R34Y/S38P/H98S	nd	0 of 3
K24A/R34T/H98N	21 nM	3 of 3
R60Y/H98T	nd	0 of 3
N35E/S58W/H98V	19 µM	1 of 3
H98R/S103E	nd	0 of 3
K36C/V39K/H98Q	63 µM	2 of 3
Y31A/H98T	5.4 nM	3 of 3
K36M/N37F/H98Q	nd	0 of 3
K24H/S25T/H98P	nd	0 of 3
Q95P/H98Y	48 nM	3 of 3
S58N/H98R/L102V	nd	0 of 3
E61W/H98Q/L102V	330 nM	2 of 3
S28L/S58I/H98A	310 nM	3 of 3
S62Q/Y97F/H98Y	41 nM	3 of 3
W56N/R60F/H98G	6.1 nM	3 of 3
S38E/T59R/H98A	6.6 µM	2 of 3
H98W/L102Q	8.4 nM	3 of 3
S28D/Y31W/H98Q	6.7 nM	3 of 3
S33G/V39Q/H98E	1.7 µM	1 of 3
T59R/Q95M/H98D	nd	0 of 3
N35R/N37E/H98W	180 nM	3 of 3
E32I/R60F/H98F	100 µM	1 of 3
Y31T/Y97V/H98V	21 nM	3 of 3
S33W/H98F/L102W	2.4 µM	3 of 3
R34H/N37K/H98W	20 nM	3 of 3
Q96T/H98L/R99D	nd	0 of 3
S26L/R60G/H98F	46 µM	1 of 3
V29L/E61R/H98E	120 nM	3 of 3
H98G/L100K	nd	0 of 3
V29Q/L30M/H98T	11 nM	3 of 3
A57P/E61T/H98W	480 nM	1 of 3
S28W/S33I/H98Y	320 µM	1 of 3
S33F/H98V	95 nM	3 of 3
N35Q/S38C/H98R	100 nM	3 of 3
S38C/H98F	33 nM	3 of 3
N37C/S58K/H98K	470 nM	3 of 3
S25M/L30M/H98C	1.9 nM	3 of 3
S25L/H98G/S103C	2.0 nM	3 of 3
V29C/H98K/L100Y	1.1 µM	3 of 3
K24D/W56T/H98K	97 nM	3 of 3
Q96A/H98V/R99F	180 µM	2 of 3
W56R/H98R/R99A	11 nM	3 of 3
Q27V/S33F/H98L	130 nM	3 of 3
Q27D/A57K/H98T	27 nM	3 of 3
S25Q/V39S/H98V	31 µM	3 of 3
E61K/H98T/S103F	nd	0 of 3
R60D/H98T/L100I	25 µM	1 of 3
R34H/H98A/R99D	32 nM	3 of 3
N35V/W56H/H98V	1.9 nM	3 of 3
Q27K/E61A/H98A	4.3 µM	1 of 3
S33C/S62D/H98M	5.2 µM	3 of 3
N37L/H98W	60 nM	3 of 3
A40W/H98S/L102W	470 µM	2 of 3
T59P/E61D/H98S	11 µM	2 of 3
N37Y/Y97S/H98W	nd	0 of 3
Q95V/H98S/P101N	4.1 µM	2 of 3
V39L/H98W/P101M	nd	0 of 3
H98A	59 nM	3 of 3
H98F	2.5 nM	3 of 3
S38H/Y97E/H98V	nd	0 of 3

The 4 strongest on average among those seen in every replicate, once more:

changes	Kd (apparent)	replicates with signal
N35V/W56H/H98V	1.9 nM	3 of 3
S25M/L30M/H98C	1.9 nM	3 of 3
S25L/H98G/S103C	2.0 nM	3 of 3
H98F	2.5 nM	3 of 3

Source: Engelhart et al. 2022 (doi:10.1038/s41597-022-01779-4), MIT Lincoln Laboratory and A-Alpha Bio; data file from the FLAb repository.